# System: CYP1A2, CYP3A, CYP2D6, CYP2C9, CYP2C19, CYP2B6
# Test: Drug interaction studies: effect of upadacitinib on co-administered drugs / in vivo markers of CYP activity (cocktail study)
# Details: extended-release
smiles,measurement,setting,value
CC(=O)C[C@@H](c1ccccc1)c1c(O)c2ccccc2oc1=O [S-Warfarin],"AUC Ratio (90% CI) of co-administered drug, with upadacitinib vs alone",upadacitinib 30 mg QD,1.11 (1.07-1.15)
same,"Cmax Ratio (90% CI) of co-administered drug, with upadacitinib vs alone",upadacitinib 30 mg QD,1.07 (1.02-1.11)
same,"AUC Ratio (90% CI) of co-administered drug, with upadacitinib vs alone",upadacitinib 45 mg QD,1.12 (1.05-1.20)
same,"Cmax Ratio (90% CI) of co-administered drug, with upadacitinib vs alone",upadacitinib 45 mg QD,1.18 (1.05-1.33)

# Source: patent publication US20230233555A1 (AbbVie Inc., priority 2022, published 2023)
